These results are taken from ChEMBL document CHEMBL2331332 (J Med Chem, 2013).

For test [1], the system named is Prostaglandin G/H synthase 1 (COX-1). Description: Inhibition of COX-1 (unknown origin)-mediated TMPD oxidation using PGG2 as substrate at 100 uM incubated 15 mins prior to substrate addition measured after 36 secs by spectrophotometric analysis. The note with it: Homo sapiens.
Test [2] concerns Prostaglandin G/H synthase 2 (COX-2). In words: Inhibition of COX-2 (unknown origin)-mediated TMPD oxidation using PGG2 as substrate at 100 uM incubated 15 mins prior to substrate addition measured after 36 secs by spectrophotometric analysis. The note with it: Homo sapiens.

Regarding `CC(c1ccccc1)N1C(=O)c2ccc(C(=O)Nc3cc(Cl)ccc3C(=O)O)cc2C1=O` (centres undefined), the inhibition was 3.8% in test [1] and 8.2% in test [2].

For `Cc1cc(C)c2oc(-c3ccc(C)c(NC(=O)c4cccc([N+](=O)[O-])c4)c3)nc2c1`, the inhibition is under 1% in test [1] and 17.3% in test [2].
